For 1 molecule, Latency results are on record in patent US20220184072A1 (priority 2019, published 2022).

For this assay, the target named is mu-opiate receptors (Mus musculus, UniProt P42866). Nature of the assay: Mouse tail flick: analgesia after 14-day chronic administration. As to conditions: acute Vehicle.

On to `O=C1CN2c3c(cccc3[C@@H]3CN(CCCc4noc5cc(F)ccc45)CC[C@@H]32)N1`, for which the Latency reads like this: ((B) chronic Ex. 3 0.3 mg/kg) 0.893 s; ((C) chronic Ex. 3 3.0 mg/kg) 1.04 s.
